Data taken from patent US7662936B2, “Mass spectrometry of antibody conjugates” (priority 2004, dated 2010).

Experiments:
[1] = Drug remaining conjugated on light and heavy chain fragments in rat plasma samples, LC/MS
[2] = Free drug MMAF in plasma of rats dosed with trastuzumab-MC-vc-PAB-MMAF, LC/MS; settings: rats dosed 26.12 mg ADC/kg; day 5
[3] = Rat study of trastuzumab-MC-val-cit-PAB-MMAE (Example 8): clinical observations, mortality, body weight; assay type: in vivo, Sprague-Dawley rats; settings: for changes in body weight by Day 5, group 3 versus group 5: 2105 ug/m^2 MMAE, 12.5 mg/kg (8.7) versus 20.2 mg/kg (5.3), p<0.05; for changes in body weight: groups 2, 4 and 7, comparable amounts of MMAE (840 ug/m^2)
Procedure: Groups 2 and 3 were administered a preparation of Tr-MC-val-cit-PAB-MMAE with average drug loading of 8.7 MMAE/Tr. Groups 4, 5, and 6 were administered a preparation of Tr-MC-val-cit-PAB-MMAE with average drug loading of 5.3 MMAE/Tr. […] Group 6 received the highest dose of 4209 μg MMAE/m^2.
The dose solutions were administered by a single intravenous bolus tail-vein injection on Study Day 1 at a dose volume of 10 ml/kg. All dose solutions were within 10% of the intended concentration. Body weights of the animals were measured pre-dose on Study Day 1 and daily thereafter. Whole blood was collected into EDTA containing tubes for hematology parameters and complete blood counts. Whole blood was collected into serum separator tubes for clinical chemistry parameters. Blood samples were collected pre-dose on […], and on Study Days 3 and 5. Whole blood was also collected into lithium heparin containing tubes and the plasma was frozen at −70° C. for later analysis.
Two animals in Group 6 administered 40.4 mg/kg trastuzumab-MC-val-cit-PAB-MMAE (5.3, cysteine) were found dead on Study Day 4. The remaining 4 animals in that group were moribund (lethargy and yellow discharges in the urogenital area) and were euthanized and necropsied on Day 4.

[4] = Group 6, 40.4 mg/kg, single iv bolus, 6 female rats

Row | Substance | MMAF per HC (heavy chain fragments) ([1]; day 4, 26.12 mg/kg) | MMAF per LC (light chain fragments) ([1]; day 4, 26.12 mg/kg) | free MMAF in plasma [2] | changes in body weight by Day 5, group 3 versus group 5 [3] | appearance of animals throughout the 5 days on study ([3]; Group 2, 5.0 mg ADC/kg, single iv bolus, 6 female rats) | appearance of animals throughout the 5 days on study ([3]; Group 3, 12.5 mg ADC/kg, single iv bolus, 6 female rats) | changes in body weight [3] | MMAE per LC (light chain fragments) ([1]; day 4, 20.2 mg ADC/kg) | appearance of animals throughout the 5 days on study ([3]; Group 4, 8.06 mg ADC/kg, single iv bolus, 6 female rats) | appearance of animals throughout the 5 days on study ([3]; Group 5, 20.2 mg ADC/kg, single iv bolus, 6 female rats) | animals found dead on Study Day 4 [3, 4] | remaining animals moribund (lethargy and yellow discharges in the urogenital area), euthanized and necropsied on Day 4 [3, 4]
1 | trastuzumab-MC-vc-PAB-MMAF with drug loading of 4 | 0.9 MMAF per HC | 0.4 MMAF per LC | 9.09 ng/mL |  |  |  |  |  |  |  |  | 
2 | trastuzumab-MC-val-cit-PAB-MMAE (8.7 drugs/antibody): preparation of Tr-MC-val-cit-PAB-MMAE with average drug loading of 8.7 MMAE/Tr |  |  |  | significantly different changes in body weight | appeared healthy | appeared healthy | comparable changes in body weight |  |  |  |  | 
3 | trastuzumab-MC-val-cit-PAB-MMAE (5.3 drugs/antibody): preparation of Tr-MC-val-cit-PAB-MMAE with average drug loading of 5.3 MMAE/Tr |  |  |  | significantly different changes in body weight |  |  | comparable changes in body weight | 0.9 MMAE per LC | appeared healthy | appeared healthy | Two | 4 animals
